## Reported fraction unbound values for industrial, environmental and drug-like chemicals

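The OPERA project collected these measurements from public sources as training and test data for property models. The files give a single number for a compound and property, which may rest on several reports. How each value was measured is not recorded, so precision varies. A value may pool stereoisomers or salt forms, and the file does not say which form was measured. Unmarked limits or estimates from the upstream databases cannot be ruled out.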

The unbound fraction in human plasma runs from 0 (all bound) to 1 (all free).

structure (SMILES) | fu
Cc1ccc(O)cc1 | 0.3259
CCCOC(C(=O)OC1CCN(C)CC1)(c1ccccc1)c1ccccc1 | 0.1
CC1(C)NC(=O)N(c2ccc([N+](=O)[O-])c(C(F)(F)F)c2)C1=O | 0.167
Cc1cccc(C)c1NC(=O)C1CCCCN1C (stereo not drawn) | 0.265
C=C(C)C(=O)OCCC(F)(F)C(F)(F)C(F)(F)C(F)(F)C(F)(F)C(F)(F)F | 0.02653
CC(C)NC(=N)NC(=N)Nc1ccc(Cl)cc1 | 0.15
CNCC[C@H](Oc1cccc2ccccc12)c1cccs1 | 0.1
COC(=O)c1ccc(I)cc1S(=O)(=O)[N-]C(=O)Nc1nc(C)nc(OC)n1.[Na+] | 0.007447
COC(=O)N[C@H](C(=O)N[C@@H](Cc1ccccc1)[C@@H](O)CN(Cc1ccc(-c2ccccn2)cc1)NC(=O)[C@@H](NC(=O)OC)C(C)(C)C)C(C)(C)C | 0.14
O=c1[nH]c(=O)c2c[nH]nc2[nH]1 | 0.995
CC(C)(Oc1ccc(CCNC(=O)c2ccc(Cl)cc2)cc1)C(=O)O | 0.05
Cc1ccc(S(=O)(=O)NC(=O)NN2CCCCCC2)cc1 | 0.0475
Cc1cccc(C)c1NC(=O)NCCCNC(C)C | 0.86
NS(=O)(=O)c1ccc(S(=O)(=O)Nc2cccc3c(Cl)c[nH]c23)cc1 | 0.02
COc1cc(NC(C)CCCN)c2ncccc2c1 (stereo not drawn) | 0.284
CCCCCCCCCCCCN1CCCCCC1=O | 0.00275
CC[C@@H]1C(=O)OC[C@@H]1Cc1cncn1C | 0.99
C#C[C@]1(O)CC[C@H]2[C@@H]3CCc4cc(O)ccc4[C@H]3CC[C@@]21C | 0.018
C[C@]12CCC(=O)C=C1CC[C@H]1[C@@H]3CC[C@](O)(C(=O)CO)[C@@]3(C)C[C@H](O)[C@@]12F | 0.25
C=C(CC)C(=O)c1ccc(OCC(=O)O)c(Cl)c1Cl | 0.1
COc1ccc(-c2coc3cc(O)cc(O)c3c2=O)cc1 | 0.0203
O=C(O)c1cc(O)c(O)c(O)c1 | 0.682
C[C@@H]1O[C@@]2(CS1)CN1CCC2CC1 | 0.85
c1ccc2[nH]c(-c3cscn3)nc2c1 | 0.1384
CC(CCC(O)=O)(c1ccc(O)cc1)c1ccc(O)cc1 | 0.163
CN1C(=O)OC(C)(C)C1=O | 0.9258
O=C(Oc1ccccc1)c1ccc(O)cc1 | 0.045
COC(=O)C1=C(C#N)NC(C)=C(C(=O)OC(C)C)C1c1cccc([N+](=O)[O-])c1 (stereo not drawn) | 0.01117
CC(C)(C)c1ccc(N)cc1 | 0.155
CC1(C)Cc2cccc(O)c2O1 | 0.364
C=CN1CCCC1=O | 0.953
CNCCCCOc1ccccc1Cc1ccccc1 | 0.05
CO[C@@H]1CN(CCn2c(=O)ccc3ccc(C#N)cc32)CC[C@H]1NCc1ccc2c(n1)NC(=O)CO2 | 0.3837
CC(CN(C)C)CN1c2ccccc2CCc2ccccc21 (stereo not drawn) | 0.05913
Cc1ccc(C(=CCN2CCCC2)c2cccc(/C=C/C(=O)O)n2)cc1 | 0.5

The 4 lowest values of fu among the entries above:

structure (SMILES) | fu
CCCCCCCCCCCCN1CCCCCC1=O | 0.00275
COC(=O)c1ccc(I)cc1S(=O)(=O)[N-]C(=O)Nc1nc(C)nc(OC)n1.[Na+] | 0.007447
COC(=O)C1=C(C#N)NC(C)=C(C(=O)OC(C)C)C1c1cccc([N+](=O)[O-])c1 (stereo not drawn) | 0.01117
C#C[C@]1(O)CC[C@H]2[C@@H]3CCc4cc(O)ccc4[C@H]3CC[C@@]21C | 0.018

From the experimental data distributed with OPERA 2.9.